# Results from patent publication US11492367B2, “Cyclic dinucleotides as sting agonists” (Janssen Biotech, Inc., priority 2017, dated 2022).
# Amino acid sequences for entries named in this document (tags omitted).
# UniProt Q86WV6, whole entry H232R: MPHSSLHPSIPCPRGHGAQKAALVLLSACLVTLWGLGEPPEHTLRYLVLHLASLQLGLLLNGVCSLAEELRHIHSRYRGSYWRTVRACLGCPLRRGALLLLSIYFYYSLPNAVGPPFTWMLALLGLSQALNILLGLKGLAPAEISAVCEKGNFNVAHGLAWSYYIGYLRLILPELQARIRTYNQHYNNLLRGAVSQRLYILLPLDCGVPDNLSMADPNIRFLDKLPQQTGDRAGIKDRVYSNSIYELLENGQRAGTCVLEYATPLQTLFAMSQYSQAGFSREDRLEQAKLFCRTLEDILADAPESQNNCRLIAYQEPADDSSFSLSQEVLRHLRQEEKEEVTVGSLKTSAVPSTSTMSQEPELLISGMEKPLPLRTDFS
# Where two headings read alike, the source gives them in different places.
# What was measured:
# [1] = test system: human STING pathway in THP1-ISG cells; assay: STING human cell reporter assay
# THP1-Blue ISG cells = assay: Human interferon-β induction assay; conditions: IFN-β in supernatant of THP1-Blue ISG cells
# human STING = human STING (Homo sapiens (Human), UniProt Q86WV6, H232R); assay: STING SPA binding assay (human); conditions: read-out: hSTING SPA IC50; displacement of [3H]-2′3′-cGAMP from biotinylated STING (139-379, H232R); tested form: Na salt
# [2] = read-out: human cell reporter EC50, SEAP reporter, 24 h
"EC50 [1, 2] [µM]",IC50 (human STING) [µM],"EC50 ([1]; read-out: human cell reporter EC50, SEAP reporter, 24 h, tested form: Na salt) [µM]",SMILES,human IFN-β (ranking value) (THP1-Blue ISG cells),human IFN-β (ranking value) (THP1-Blue ISG cells; tested form: Na salt)
9.5,–,–,Nc1nc2c(ncn2C2OC3CNP(=O)(O)OC4C(COP(=O)(O)OC2C3F)OC(n2cnc3c(N)ncnc32)C4O)c(=O)[nH]1 (stereo not drawn),–,–
3.73,–,–,Nc1nc2c(ncn2C2OC3COP(=O)(O)NC4C(COP(=O)(O)OC2C3O)OC(n2cnc3c(N)ncnc32)C4F)c(=O)[nH]1 (stereo not drawn),628,–
–,< 0.01,1.97,COC1C2COP(=O)(O)NC3C(CO[P@@](=O)(S)OC1C(n1cnc4c(=O)[nH]c(N)nc41)O2)OC(n1cnc2c(N)ncnc21)C3F (stereo partly drawn),–,943
